# From US12570750B2, “Antibodies that bind adenosine A2A receptors and methods of use thereof to treat cancer and neurological diseases” (Twist Bioscience Corporation, priority 2019, dated 2026)
# B1: A2A-1: A2AR variant immunoglobulin, CDRH1-3 SEQ ID NOs 6/95/184 (antibody, V domains shown)
# VH: QVQLQESGPGLVKPSGTLSLTCAVSGGSISSSNWWSWVRQPPGKGLEWIGEIYPSGNTYYNPSLKSRVTISVDKSKNQFSLKLNSVTAADTAVYYCARDEGYWGQGTLVTVSS
# VL: [about 100 residues omitted]RTFGQGTKVDIK
# Tests used:
# [1] = target: T1, adenosine A2A receptor (Homo sapiens, UniProt P29274); test: A2A cAMP antagonist titration: fixed 100 nM IgG, then NECA titration; assay type: cell-based; conditions: Table 9
# Procedure: Buffer was PBS+0.1% BSA+0.5 mM IBMX.
# A2A-9 was assayed as described in Example 15.
# [2] = target: T1, adenosine A2A receptor; test: LANCE allosteric cAMP assay: titrated IgG, then fixed NECA concentration; assay type: cell-based; conditions: Table 10
# Procedure: A2A-1 and A2A-9 were assayed for allosteric modulation.
# A2A-9 was assayed as described in Example 16.
molecule,measurement,setting,value
B1,Functional classification from NECA titration,[1],negative allosteric modulator
same,Functional classification from IgG titration,[2],negative allosteric modulator
